Target: α4β1 integrin (Homo sapiens, UniProt P05556+P13612)
Assay: Inhibition of adhesion of calcein AM-labeled Ramos cells to CS1 (fibronectin) peptide-conjugated ovalbumin
Conditions: Table 1; Ramos cell adhesion to CS1-conjugated ovalbumin, 30 minutes at 37° C.

The chains behind the UniProt entries cited, without tags or fusion partners. Residues count along the entry.
UniProt P05556, 21-798 limits assumed: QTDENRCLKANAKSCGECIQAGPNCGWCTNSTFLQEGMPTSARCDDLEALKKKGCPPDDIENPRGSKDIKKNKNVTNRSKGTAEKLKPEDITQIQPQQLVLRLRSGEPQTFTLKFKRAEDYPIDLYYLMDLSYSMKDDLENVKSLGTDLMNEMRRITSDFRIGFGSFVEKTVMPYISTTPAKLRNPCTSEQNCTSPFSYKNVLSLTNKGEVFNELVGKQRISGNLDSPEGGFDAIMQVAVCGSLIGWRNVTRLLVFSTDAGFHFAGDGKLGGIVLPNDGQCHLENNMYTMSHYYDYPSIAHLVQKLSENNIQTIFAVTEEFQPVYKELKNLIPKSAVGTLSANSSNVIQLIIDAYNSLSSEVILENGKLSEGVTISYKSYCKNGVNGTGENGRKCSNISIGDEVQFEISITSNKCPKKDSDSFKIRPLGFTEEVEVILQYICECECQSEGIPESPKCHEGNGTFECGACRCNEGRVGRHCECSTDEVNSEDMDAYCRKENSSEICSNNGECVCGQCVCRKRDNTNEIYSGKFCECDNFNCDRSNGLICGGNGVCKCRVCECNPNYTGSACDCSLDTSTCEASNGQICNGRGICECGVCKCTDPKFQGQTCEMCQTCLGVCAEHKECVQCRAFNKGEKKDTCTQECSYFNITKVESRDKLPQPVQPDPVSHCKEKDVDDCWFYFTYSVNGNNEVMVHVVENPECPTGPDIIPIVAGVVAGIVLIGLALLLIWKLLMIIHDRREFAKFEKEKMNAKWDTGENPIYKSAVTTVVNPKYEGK
UniProt P13612, 34-1032 limits assumed: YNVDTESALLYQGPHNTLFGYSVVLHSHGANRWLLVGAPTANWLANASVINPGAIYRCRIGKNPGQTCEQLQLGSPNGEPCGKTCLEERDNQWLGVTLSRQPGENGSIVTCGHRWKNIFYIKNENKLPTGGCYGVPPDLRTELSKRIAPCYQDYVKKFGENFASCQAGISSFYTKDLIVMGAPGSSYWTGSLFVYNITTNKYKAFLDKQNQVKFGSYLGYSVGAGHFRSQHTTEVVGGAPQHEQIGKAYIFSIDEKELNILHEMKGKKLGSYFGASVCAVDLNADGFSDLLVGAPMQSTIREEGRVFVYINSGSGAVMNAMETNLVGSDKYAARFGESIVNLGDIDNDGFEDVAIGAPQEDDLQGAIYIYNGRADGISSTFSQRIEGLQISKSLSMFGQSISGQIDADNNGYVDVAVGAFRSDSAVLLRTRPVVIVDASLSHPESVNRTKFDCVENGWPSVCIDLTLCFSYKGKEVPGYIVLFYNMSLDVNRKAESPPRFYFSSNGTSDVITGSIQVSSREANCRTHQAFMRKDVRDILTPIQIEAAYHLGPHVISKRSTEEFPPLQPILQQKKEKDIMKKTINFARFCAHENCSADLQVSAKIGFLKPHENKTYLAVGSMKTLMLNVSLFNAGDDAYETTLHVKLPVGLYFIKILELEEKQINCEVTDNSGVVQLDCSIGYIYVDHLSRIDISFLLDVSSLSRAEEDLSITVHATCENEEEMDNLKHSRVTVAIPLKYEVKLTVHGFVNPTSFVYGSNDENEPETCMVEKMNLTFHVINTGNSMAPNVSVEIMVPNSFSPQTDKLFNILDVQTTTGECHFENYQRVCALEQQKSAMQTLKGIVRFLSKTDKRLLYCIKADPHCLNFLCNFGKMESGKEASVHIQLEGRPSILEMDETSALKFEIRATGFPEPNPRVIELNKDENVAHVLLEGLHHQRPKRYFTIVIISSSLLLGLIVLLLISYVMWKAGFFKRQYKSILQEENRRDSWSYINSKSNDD

IC50: 2000 nM
Compound: CCCC[C@H](C(=O)N[C@@H](CC(=O)O)c1ccc2c(c1)OCO2)n1cc(C)cc(Cc2ccccc2)c1=O

Reference: patent publication US20030199692A1, “Propanoic acid derivatives that inhibit the binding of integrins to their receptors” (priority 1999, published 2003)
